Values of other authors as cited in patent US12379360B2, “Detection system for an electronic nose allowing a physicochemical classification of odours and electronic nose comprising such a system” (COMMISSARIAT À L'ÉNERGIE ATOMIQUE ET AUX ÉNERGIES …, priority 2019, dated 2025).

Conditions: pure compound

## CC(=O)O [AcOH, acetic acid]
  n (refractive index): 1.372
